Laboratory results: PMC10906223, “An orally available compound suppresses glucagon hypersecretion and normalizes hyperglycemia in type 1 diabetes” (JCI Insight, 2024)

Assay: Microsomal stability assay, CD-1 mouse liver microsomes
Type: in vitro ADME
Procedure: A total of 445 μL of the working solution was transferred into prewarmed incubation plates for treated (T60) and control (NCF60) measurements. After preincubation (10 minutes at 37°C with constant shaking), 54 μL was transferred to the blank plate, followed by 6 μL of NADPH and 180 μL quenching solution. In parallel, 5 μL of WCDD301 (100 μM) was added into incubation plates (T60 and NCF60) containing microsomes and mixed thoroughly (3 times). For the NCF60 plate, 50 μL of buffer was added, mixed (thoroughly, 3 times), shaken, and incubated at 37°C for 60 minutes. In the quenching plate T0, quenching solution (180 μL) and NADPH cofactor (6 μL) were added. For T60 plate, 54 μL of the mixture was placed into the quenching plate (for T0 point), followed by adding 44 μL NADPH cofactor with shaking incubation at 37°C for 60 minutes. Quenching solution (180 μL) was added to quenching plates at 5, 15, 30, 45, and 60 minutes, and 60 μL of sample was transferred from T60 plate per time point to the quenching plates. For the NCF60 plates, 60 μL sample from the NCF60 incubation plate was transferred to the quenching plate (containing quenching solution) at the 60-minute time point. After plates were shaken for 10 minutes and centrifuged (1,750g, 20 minutes at 4°C), 80 μL of the supernatant was transferred into 240 μL HPLC water for LC-MS/MS analysis. […]

## O=C(O)Cc1ccccc1Nc1c(Cl)cccc1Cl [Diclofenac]
  half-life at 1 µM: 47.5 min
